Here are results for one compound from US20220088231A1, “RADIOIMMUNOCONJUGATES AND DNA DAMAGE AND REPAIR INHIBITOR COMBINATION THERAPY” (Fusion Pharmaceuticals Inc., priority 2018, published 2022).

In assay [1] the test system is Colo-205 (colorectal cancer) xenograft model. As to the kind of experiment: In vivo efficacy/synergy study, relative tumor volume in Colo-205 xenograft model. The procedure:
(§1) An in vivo efficacy study was conducted with olaparib alone as a single agent. […] Groups of animals (n=5) were dosed with olaparib (i.p.) 5 days on, 2 days off using 10-100 mg/kg doses.
(§2) Combination groups (n=5) were dosed with olaparib (i.p.) 5 days on, 2 days off, using a 50 mg/kg dose for 28 days.

In assay [2] the test system is A549 (NSCLC) xenograft model. Description: In vivo efficacy/synergy study, relative tumor volume in A549 xenograft model. To be noted: Example 1, dosing schedule 1 (FIG. 1): [225Ac]-FPI-1434 200 nCi; BAY-1895344 i.p. 20 mg/kg, 2 days on, 5 days off for 28 days, first dose 24 hours after [225Ac]-FPI-1434; evaluated up to 28 days. Here is the method: as §1, §2

In the case of `C[C@@H]1COCCN1c1cc(-c2ccnn2C)c2ccnc(-c3ccn[nH]3)c2n1` [BAY-1895344], the Relative tumor volume entry is given as “did not demonstrate any reduction in reduction in tumor volume over time relative to Vehicle controls” in assay [1] (Example 1, dosing schedule 1 (FIG. 1): [225Ac]-FPI-1434 50 nCi, BAY-1895344 i.p. 20 mg/kg, 2 days on, 5 days off for 28 days, first dose 24 hours after [225Ac]-FPI-1434, evaluated up to 28 days); “demonstrated some reduction in tumor volume over time” in assay [1] (Example 2, dosing schedule 2 (FIG. 3): [225Ac]-FPI-1434 50 nCi, BAY-1895344 three times a week starting at 40 mg/kg, gradually reduced to 20 mg/kg, first dose 24 hours after FPI-1434, up to 28 days); “did not demonstrate any reduction in reduction in tumor volume over time relative to Vehicle controls” in assay [2].
